Test results from article PMC12155096 (International Journal of Molecular Sciences, 2025).

The chains behind the UniProt entries cited, without tags or fusion partners.
UniProt P08684, whole entry: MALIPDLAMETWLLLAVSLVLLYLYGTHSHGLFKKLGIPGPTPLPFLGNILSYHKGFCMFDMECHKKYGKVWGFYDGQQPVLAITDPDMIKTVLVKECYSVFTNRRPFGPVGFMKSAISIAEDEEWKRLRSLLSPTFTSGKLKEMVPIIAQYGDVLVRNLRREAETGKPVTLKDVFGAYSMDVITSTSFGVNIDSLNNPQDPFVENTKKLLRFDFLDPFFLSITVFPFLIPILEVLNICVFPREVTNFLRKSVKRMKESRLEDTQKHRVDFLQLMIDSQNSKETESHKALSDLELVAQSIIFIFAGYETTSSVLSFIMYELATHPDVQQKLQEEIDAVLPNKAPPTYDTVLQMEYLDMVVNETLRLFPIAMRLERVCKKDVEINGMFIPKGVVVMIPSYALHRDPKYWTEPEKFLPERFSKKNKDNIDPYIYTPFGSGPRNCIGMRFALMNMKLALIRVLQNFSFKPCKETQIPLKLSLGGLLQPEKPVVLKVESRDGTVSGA
UniProt P08659, whole entry: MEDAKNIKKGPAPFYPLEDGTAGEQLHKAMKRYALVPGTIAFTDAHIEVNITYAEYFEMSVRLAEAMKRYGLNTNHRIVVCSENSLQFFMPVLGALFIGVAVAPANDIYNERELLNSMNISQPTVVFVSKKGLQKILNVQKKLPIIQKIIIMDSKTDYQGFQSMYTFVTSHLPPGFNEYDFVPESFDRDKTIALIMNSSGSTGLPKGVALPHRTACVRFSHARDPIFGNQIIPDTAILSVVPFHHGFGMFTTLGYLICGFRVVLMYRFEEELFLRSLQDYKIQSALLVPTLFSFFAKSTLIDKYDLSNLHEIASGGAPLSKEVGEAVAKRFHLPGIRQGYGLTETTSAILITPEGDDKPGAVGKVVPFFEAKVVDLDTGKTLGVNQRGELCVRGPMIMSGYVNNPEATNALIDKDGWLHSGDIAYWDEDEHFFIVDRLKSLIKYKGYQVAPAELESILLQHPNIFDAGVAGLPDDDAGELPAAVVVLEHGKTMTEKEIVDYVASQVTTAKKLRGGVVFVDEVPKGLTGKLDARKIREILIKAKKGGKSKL

Key:
CYP3A4 = CYP3A4 (Homo sapiens, UniProt P08684)
[1] = biological target: Photinus pyralis (firefly) luciferase (Photinus pyralis, UniProt P08659)

Row | Compound | CYP3A4 Efficacy (in parenthesis) (CYP3A4) | Luciferase IC50 (half-maximal inhibitory concentration) [1]
1 | CCC(C)n1ncn(-c2ccc(N3CCN(c4ccc(OCC5COC(Cn6cncn6)(c6ccc(Cl)cc6Cl)O5)cc4)CC3)cc2)c1=O (centres unmarked) [Itraconazole] | 0.13 ± 0.04 (-76 ± 8) % | –
2 | CCN[C@@H]1C[C@H](N)[C@@H](O[C@H]2OC(CN)=CC[C@H]2N)[C@H](O)[C@H]1O[C@H]1OC[C@](C)(O)[C@H](NC)[C@H]1O.CCN[C@@H]1C[C@H](N)[C@@H](O[C@H]2OC(CN)=CC[C@H]2N)[C@H](O)[C@H]1O[C@H]1OC[C@](C)(O)[C@H](NC)[C@H]1O.O=S(=O)(O)O.O=S(=O)(O)O.O=S(=O)(O)O.O=S(=O)(O)O.O=S(=O)(O)O [Netilmicin sulfate] | – | Inactive
